Our source for the IC50 values is patent publication US9394282B2, “Pyrazole carboxamides as Janus kinase inhibitors” (Merck Sharp & Dohme Corp., priority 2011, dated 2016).

Sequences of proteins named here, by UniProt entry; tags and fusion partners are left off. Residues count along the entry.
UniProt P23458, 875-1153: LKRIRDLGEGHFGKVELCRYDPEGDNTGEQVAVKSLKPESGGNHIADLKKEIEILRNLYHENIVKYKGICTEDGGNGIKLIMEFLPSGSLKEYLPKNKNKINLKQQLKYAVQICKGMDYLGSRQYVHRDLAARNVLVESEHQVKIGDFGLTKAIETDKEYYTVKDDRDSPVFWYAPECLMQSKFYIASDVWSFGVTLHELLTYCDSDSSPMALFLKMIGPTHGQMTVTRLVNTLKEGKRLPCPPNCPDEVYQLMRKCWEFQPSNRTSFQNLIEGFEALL
UniProt O60674, 849-1124: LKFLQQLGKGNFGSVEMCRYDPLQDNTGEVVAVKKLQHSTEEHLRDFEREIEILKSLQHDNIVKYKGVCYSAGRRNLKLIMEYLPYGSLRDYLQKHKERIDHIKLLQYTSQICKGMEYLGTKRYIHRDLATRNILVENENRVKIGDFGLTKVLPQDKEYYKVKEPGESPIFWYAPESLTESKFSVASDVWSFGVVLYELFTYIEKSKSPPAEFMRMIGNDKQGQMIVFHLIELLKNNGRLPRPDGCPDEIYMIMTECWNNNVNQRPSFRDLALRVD

One experiment concerns the target JAK1 (Homo sapiens (Human), UniProt P23458). Description: Jak biochemical HTRF assay, JAK1. The following applies: recombinant purified GST-tagged catalytic domain; HTRF format; [ATP] 31.8 μM. From the text:
(§1) Jak Biochemical HTRF Assay Protocol
(§2) Subsequent reagent additions employed an Agilent Bravo.

The target in a further experiment is JAK2 (Homo sapiens (Human), UniProt O60674). Description: Jak biochemical HTRF assay, JAK2. The following applies: recombinant purified GST-tagged catalytic domain; HTRF format; [ATP] 8.5 μM.
Excerpt: as §1, §2

For the molecule `N#C[C@@H]1CCN(C(=O)OCC2CC2)CC1n1cc(C(N)=O)c(Nc2ccc(F)cc2)n1` (mixture of isomers) [Example 5-81, cyclopropylmethyl (3S,4R and 3R,4S)-3-{4-carbamoyl-3-[(4-fluorophenyl)amino]-1H-pyrazol-1-yl}-4-cyanopiperidine-1-carboxylate], the IC50 came to 3 nM on JAK1 and 52 nM at JAK2.
